According to BindingDB's records for 28501648:

Target: Acetylcholinesterase (Electrophorus electricus, UniProt O42275)
Assay: In Vitro AChE/BChE Inhibition Assay
Details: pH 7.4

Going from `O=C(NCCCCNc1c2c(nc3ccccc13)CCCC2)c1ccccc1F` to `O=C(NCCCCNc1c2c(nc3ccccc13)CCCC2)c1cccc(F)c1`, the IC50 rises from 41.4 nM to 97.6 nM (2.4-fold). The first is the more potent here.

`O=C(NCCNc1c2c(nc3ccccc13)CCCC2)c1cccc(F)c1` was tested, and the IC50 was 1600 nM.

Target: Carboxylic ester hydrolase (Equus caballus, UniProt Q9N1N9)
Assay: In Vitro AChE/BChE Inhibition Assay
Details: pH 7.4

`O=C(NCCCCNc1c2c(nc3ccccc13)CCCC2)c1ccccc1F` and `O=C(NCCCCNc1c2c(nc3ccccc13)CCCC2)c1cccc(F)c1` are within 1.5-fold of each other in IC50: 1.39 nM for the first, 1.02 nM for the second.

`O=C(NCCNc1c2c(nc3ccccc13)CCCC2)c1cccc(F)c1` was tested, and the IC50 was 4.76 nM.
